For one compound, activity change, negative = inhibition results are on record in PubChem BioAssay AID493083 (Broad Institute, 2011).

The other results are listed elsewhere or left out. Measured potencies and affinities stand elsewhere. Calls of active or inactive are those of the source.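 The calls were made as follows: active = compounds lowering signal whose fitted AC50 is at most ten times the top tested dose; inconclusive = flat fit with moderate inhibition, or poor curve fit; inactive = the rest.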

The assay is described as follows: GFP reporter loss versus dox-driven RFP – NIH3T3 R4 cells, cherry-pick, set 3, dose response (AID 493083).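 Also: 0% = neutral control wells and -100% = didemnin B positive control.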 To be noted: NIH3T3 R4 HSF-1 GFP reporter, heat shock, 48 h; at 19.5 µM (top of the series).
On to `CP(=O)(Nc1ccccc1F)Oc1ccccc1` (stereo unspecified), for which the activity change, negative = inhibition was inactive: -8.99%.
